According to patent EP1903056A2, “HLA-A1, -A2 -A3, -A24, -B7, and -B44 tumor associated antigen peptides and compositions” (priority 2002, dated 2004):
Read-outs that look alike come from different tables or passages of the source.

How the values were obtained:
B*1801 = B*1801 (Homo sapiens, UniProt P01889, A329T/A93T/A95T/C349S/D201E/D54G/D98Y/E176V/E187T/E204Q/E69T/K202T/Q94N/R155S/R180L/S121R/V306I/Y140S/Y195H/Y33H/Y91S); assay: B44 supertype peptide binding, B*1801
B*4001(B60) = B*4001(B60) (Homo sapiens, UniProt P01889, A65T/A93T/A95T/D138N/D98Y/E176V/E69K/N87E/Q56L/Q94N/R180L/S121R/S35A/S48T/T167S/V36M/W171L/Y33H/Y91S); assay: B44 supertype peptide binding, B*4001; conditions: read-out: B* 4001
B*4002 (B61) = B*4002 (B61) (Homo sapiens, UniProt P01889, A65T/A93T/A95T/D138N/D201E/D98Y/E176V/E204Q/E69K/K202T/N87E/Q56L/Q94N/R180L/S48T/Y33H/Y91S); assay: B44 supertype peptide binding, B*4002; conditions: read-out: B* 4002
B*4402 = B*4402 (Homo sapiens, UniProt P01889, A223V/A65T/A93T/A95T/D201E/D98Y/E176V/E187L/E204Q/E69K/G107R/H137Y/K202T/L105A/L119I/N104T/N87E/Q56L/Q94N/R106L/R155S/R180D/S101N/S121R/S35A/S48T/T118I/V36M/W191S/Y140D/Y91S); assay: B44 supertype peptide binding, B*4402; conditions: read-out: B* 4402
B*4403 = B*4403 (Homo sapiens, UniProt P01889, A223V/A65T/A93T/A95T/D201E/D98Y/E176V/E187L/E204Q/E69K/G107R/H137Y/K202T/L105A/L119I/N104T/N87E/Q56L/Q94N/R106L/R155S/R180L/S101N/S121R/S35A/S48T/T118I/V36M/W191S/Y140D/Y91S); assay: B44 supertype peptide binding, B*4403; conditions: read-out: B* 4403
B*4501 = B*4501 (Homo sapiens, UniProt P01889, A329T/A65T/A93T/A95T/C349S/D138N/D201E/D98Y/E176V/E187L/E204Q/E69K/H137Y/K202T/L119W/N87E/Q56L/Q94N/R155S/R180D/S121R/S35A/S48T/V127L/V306I/V36M/W191S/Y140L/Y33H/Y91S); assay: B44 supertype peptide binding, B*4501
[1] = system: B44 supertype (B*1801, B*4001, B*4002, B*4402, B*4403, B*4501); assay: B44 supertype cross-binding (degeneracy, number of alleles bound); set-up: species or system human; conditions: Table 29: MAGE2-derived B44 peptides; number of the six B44 alleles bound
[2] = CEA-derived B44 peptides, binding affinity, unit inferred
[3] = CEA-derived B44 peptides, binding affinity, unit inferred, read-out: B* 4501
[4] = HER 2/neu-derived B44 peptides, Table 27
[5] = HER 2/neu-derived B44 peptides, Table 27, read-out: B* 4501
[6] = Table 28: p53-derived B44 peptides
[7] = Table 28: p53-derived B44 peptides, read-out: B* 4501
[8] = Table 29: MAGE2-derived B44 peptides
[9] = Table 29: MAGE2-derived B44 peptides, read-out: B* 4501

C[C@H](NC(=O)[C@H](CCC(=O)O)NC(=O)[C@H](CCC(=O)O)NC(=O)[C@@H](N)CC(N)=O)C(=O)N[C@H](C(=O)NCC(=O)N[C@@H](CCC(N)=O)C(=O)N[C@@H](Cc1ccccc1)C(=O)O)[C@@H](C)O [compound 416]
IC50 (B*1801; [2]): 7330 nM
IC50 (B*4001(B60); [2]): > 10000 nM
IC50 (B*4002 (B61); [2]): > 10000 nM
IC50 (B*4402; [2]): 8370 nM
IC50 (B*4403; [2]): 17100 nM
IC50 (B*4501; [3]): 17700 nM

CC[C@H](C)[C@H](NC(=O)[C@H](CO)NC(=O)[C@@H]1CCCN1C(=O)[C@H](CCCCN)NC(=O)[C@@H]1CCCN1C(=O)[C@H](CC(C)C)NC(=O)[C@H](CCC(=O)O)NC(=O)[C@@H]1CCCN1)C(=O)O [compound 417]
IC50 (B*1801; [2]): 9110 nM
IC50 (B*4001(B60); [2]): > 10000 nM
IC50 (B*4002 (B61); [2]): > 10000 nM
IC50 (B*4402; [2]): > 10000 nM
IC50 (B*4403; [2]): 5140 nM
IC50 (B*4501; [3]): > 10000 nM

CC[C@H](C)[C@H](NC(=O)[C@H](CC(C)C)NC(=O)[C@@H](NC(=O)[C@H](Cc1ccc(O)cc1)NC(=O)CNC(=O)[C@H](CCC(N)=O)NC(=O)[C@@H](NC(=O)[C@H](CCC(=O)O)NC(=O)[C@@H](N)CCC(N)=O)C(C)C)C(C)C)C(=O)O [compound 432]
IC50 (B*1801; [4]): 42 nM
IC50 (B*4001(B60); [4]): 36 nM
IC50 (B*4002 (B61); [4]): 28 nM
IC50 (B*4402; [4]): 45 nM
IC50 (B*4403; [4]): 1.7 nM
IC50 (B*4501; [5]): 92 nM

CC[C@H](C)[C@H](NC(=O)[C@H](CO)NC(=O)[C@@H](NC(=O)[C@H](CC(C)C)NC(=O)[C@@H]1CCCN1C(=O)[C@H](CO)NC(=O)[C@H](C)NC(=O)[C@H](CCCNC(=N)N)NC(=O)[C@H](CCC(N)=O)NC(=O)[C@H](CCC(=O)O)NC(=O)[C@H](C)N)[C@@H](C)O)C(=O)O [compound 435]
IC50 (B*1801; [4]): 467 nM
IC50 (B*4001(B60); [4]): 19 nM
IC50 (B*4002 (B61); [4]): 58 nM
IC50 (B*4402; [4]): 5.1 nM
IC50 (B*4403; [4]): 2.5 nM
IC50 (B*4501; [5]): 11 nM

CC(C)C[C@H](NC(=O)[C@@H]1CCCN1C(=O)[C@H](C)NC(=O)[C@@H](NC(=O)[C@H](Cc1ccc(O)cc1)NC(=O)CNC(=O)[C@H](CC(=O)O)NC(=O)[C@@H](NC(=O)[C@H](CCC(=O)O)NC(=O)[C@@H](N)CO)[C@@H](C)O)C(C)C)C(=O)O [compound 446]
IC50 (B*1801; [4]): 94 nM
IC50 (B*4001(B60); [4]): 214 nM
IC50 (B*4002 (B61); [4]): 184 nM
IC50 (B*4402; [4]): 386 nM
IC50 (B*4403; [4]): 2.4 nM
IC50 (B*4501; [5]): 302 nM

CC(C)C[C@H](NC(=O)[C@@H]1CCCN1C(=O)[C@H](CO)NC(=O)[C@H](CCCNC(=N)N)NC(=O)[C@@H]1CCCN1C(=O)[C@H](C)NC(=O)[C@H](CCC(=O)O)NC(=O)[C@H](CCC(=O)O)NC(=O)[C@@H](N)CCC(=O)O)C(=O)O [compound 498]
IC50 (B*1801; [4]): 902 nM
IC50 (B*4001(B60); [4]): 4490 nM
IC50 (B*4002 (B61); [4]): 316 nM
IC50 (B*4402; [4]): 177 nM
IC50 (B*4403; [4]): 362 nM
IC50 (B*4501; [5]): 307 nM

CC(C)[C@H](NC(=O)[C@@H]1CCCN1C(=O)[C@@H]1CCCN1C(=O)[C@H](C)NC(=O)[C@H](C)NC(=O)[C@H](CCC(=O)O)NC(=O)[C@@H]1CCCN1)C(=O)O [compound 640]
IC50 (B*1801; [6]): 14200 nM
IC50 (B*4001(B60); [6]): > 10000 nM
IC50 (B*4002 (B61); [6]): > 10000 nM
IC50 (B*4402; [6]): > 10000 nM
IC50 (B*4403; [6]): 5430 nM
IC50 (B*4501; [7]): > 10000 nM

CC(C)[C@H](NC(=O)[C@H](CCC(=O)O)NC(=O)[C@@H]1CCCN1)C(=O)NCC(=O)N[C@@H](CO)C(=O)N[C@@H](CC(=O)O)C(=O)N[C@@H](CS)C(=O)N[C@H](C(=O)N[C@H](C(=O)O)[C@@H](C)O)[C@@H](C)O [compound 642]
IC50 (B*1801; [6]): 18600 nM
IC50 (B*4001(B60); [6]): 1190 nM
IC50 (B*4002 (B61); [6]): > 10000 nM
IC50 (B*4402; [6]): 7110 nM
IC50 (B*4403; [6]): 13000 nM
IC50 (B*4501; [7]): > 10000 nM

CC[C@H](C)[C@H](NC(=O)[C@@H](NC(=O)[C@@H](NC(=O)[C@H](CS)NC(=O)[C@H](CC(=O)O)NC(=O)[C@H](CO)NC(=O)CNC(=O)[C@@H](NC(=O)[C@H](CCC(=O)O)NC(=O)[C@@H]1CCCN1)C(C)C)[C@@H](C)O)[C@@H](C)O)C(=O)N[C@@H](Cc1c[nH]cn1)C(=O)N[C@@H](Cc1ccc(O)cc1)C(=O)O [compound 643]
IC50 (B*1801; [6]): 1180 nM
IC50 (B*4001(B60); [6]): 10200 nM
IC50 (B*4002 (B61); [6]): 7990 nM
IC50 (B*4402; [6]): 4090 nM
IC50 (B*4403; [6]): 1940 nM
IC50 (B*4501): 2250 nM

CC(C)C[C@H](NC(=O)[C@H](CC(N)=O)NC(=O)[C@H](CCC(=O)O)NC(=O)[C@H](CCC(=O)O)NC(=O)[C@@H](N)CCC(=O)O)C(=O)N[C@@H](CCCNC(=N)N)C(=O)N[C@@H](CCCCN)C(=O)N[C@@H](CCCCN)C(=O)NCC(=O)O [compound 644]
IC50 (B*1801; [6]): 1460 nM
IC50 (B*4001(B60); [6]): 687 nM
IC50 (B*4002 (B61); [6]): > 10000 nM
IC50 (B*4402; [6]): 3660 nM
IC50 (B*4403; [6]): 706 nM
IC50 (B*4501): 18400 nM

CC[C@H](C)[C@H](NC(=O)[C@H](C)NC(=O)[C@H](C)NC(=O)[C@H](CCC(N)=O)NC(=O)[C@H](Cc1ccccc1)NC(=O)[C@H](CCC(=O)O)NC(=O)[C@H](CO)NC(=O)[C@H](CCC(=O)O)NC(=O)[C@@H](N)CC(C)C)C(=O)O [compound 645]
IC50 (B*1801; [8]): 14 nM
IC50 (B*4001(B60); [8]): 41 nM
IC50 (B*4002 (B61); [8]): 39 nM
IC50 (B*4402; [8]): 43 nM
IC50 (B*4403; [8]): 1 nM
IC50 (B*4501; [9]): 78 nM

CC[C@H](C)[C@H](NC(=O)CNC(=O)[C@H](Cc1ccccc1)NC(=O)[C@@H](NC(=O)[C@H](CC(C)C)NC(=O)[C@H](CCC(N)=O)NC(=O)[C@H](CC(C)C)NC(=O)[C@H](Cc1ccc(O)cc1)NC(=O)[C@H](CCC(=O)O)NC(=O)[C@@H](N)CO)C(C)C)C(=O)N[C@@H](CCC(=O)O)C(=O)N[C@H](C(=O)N[C@H](C(=O)O)C(C)C)C(C)C [compound 651]
IC50 (B*1801; [8]): 12 nM
IC50 (B*4001(B60); [8]): 44 nM
IC50 (B*4002 (B61); [8]): 17 nM
IC50 (B*4402; [8]): 229 nM
IC50 (B*4403; [8]): 7.6 nM
IC50 (B*4501; [9]): 22 nM

CC(C)C[C@H](NC(=O)[C@H](Cc1ccccc1)NC(=O)[C@H](CCC(=O)O)NC(=O)[C@@H](N)Cc1ccc(O)cc1)C(=O)N[C@@H](Cc1c[nH]c2ccccc12)C(=O)NCC(=O)N1CCC[C@H]1C(=O)N[C@@H](CCCNC(=N)N)C(=O)N[C@@H](C)C(=O)O [compound 664]
Degeneracy [1]: 5

CC(C)C[C@H](NC(=O)[C@H](C)NC(=O)[C@H](CCCNC(=N)N)NC(=O)[C@@H]1CCCN1C(=O)CNC(=O)[C@H](Cc1c[nH]c2ccccc12)NC(=O)[C@H](CC(C)C)NC(=O)[C@H](Cc1ccccc1)NC(=O)[C@H](CCC(=O)O)NC(=O)[C@@H](N)Cc1ccc(O)cc1)C(=O)O [compound 665]
Degeneracy [1]: 5

CC[C@H](C)[C@H](N)C(=O)N[C@@H](CCC(=O)O)C(=O)N[C@H](C(=O)N[C@H](C(=O)N[C@@H](CCC(=O)O)C(=O)N[C@H](C(=O)N[C@H](C(=O)N1CCC[C@H]1C(=O)N[C@H](C(=O)O)[C@@H](C)CC)C(C)C)C(C)C)C(C)C)C(C)C [compound 675]
Degeneracy [1]: 4

CC(C)C[C@H](NC(=O)CNC(=O)[C@H](CC(C)C)NC(=O)[C@H](C)NC(=O)[C@H](CCC(=O)O)NC(=O)CN)C(=O)N[C@H](C(=O)NCC(=O)N[C@@H](C)C(=O)N[C@@H](CCC(N)=O)C(=O)N[C@@H](C)C(=O)O)C(C)C [compound 685]
Degeneracy [1]: 3

CC[C@H](C)[C@H](N)C(=O)N[C@@H](CCC(=O)O)C(=O)N[C@H](C(=O)N[C@H](C(=O)N[C@@H](CCC(=O)O)C(=O)N[C@H](C(=O)N[C@H](C(=O)N1CCC[C@H]1C(=O)N[C@H](C(=O)N[C@@H](CO)C(=O)N[C@@H](Cc1c[nH]cn1)C(=O)N[C@@H](CC(C)C)C(=O)N[C@@H](Cc1ccc(O)cc1)C(=O)O)[C@@H](C)CC)C(C)C)C(C)C)C(C)C)C(C)C [compound 691]
Degeneracy [1]: 3
